Molecular target: GSK3α (Homo sapiens, UniProt P49840)

Sequences of proteins named here, by UniProt entry; tags and fusion partners are left off. A change or cut given only in a name is not applied to a line headed by its entry.
UniProt P49840: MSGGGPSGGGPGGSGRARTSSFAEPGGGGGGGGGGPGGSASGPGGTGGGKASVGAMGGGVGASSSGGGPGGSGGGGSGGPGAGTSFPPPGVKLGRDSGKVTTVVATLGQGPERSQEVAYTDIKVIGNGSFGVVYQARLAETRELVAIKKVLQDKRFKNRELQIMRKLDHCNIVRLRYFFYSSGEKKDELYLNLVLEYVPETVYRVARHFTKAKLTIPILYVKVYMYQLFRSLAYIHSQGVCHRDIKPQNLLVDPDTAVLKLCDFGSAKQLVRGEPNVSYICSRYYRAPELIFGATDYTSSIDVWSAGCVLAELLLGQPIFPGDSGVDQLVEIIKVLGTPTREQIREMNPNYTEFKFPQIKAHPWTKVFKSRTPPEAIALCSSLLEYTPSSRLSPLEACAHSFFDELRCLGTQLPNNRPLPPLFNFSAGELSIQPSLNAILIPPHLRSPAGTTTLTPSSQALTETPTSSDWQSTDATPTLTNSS

Compound: CC[C@@]1(c2ccccc2)C2=C(CC(C)(C)CC2=O)Nc2n[nH]cc21 [BRD0705]
- % Inhibition at 10 μM: 100.8%

— patent US20160375006A1 (published 2016)
